Laboratory results as given in patent US20250268876A1, “TREATMENT OF HIDRADENITIS SUPPURATIVA WITH ORISMILAST” (UNION THERAPEUTICS A/S, priority 2021, published 2025).
pIC50: −log10 of the molar value.

By UniProt entry, the sequences of proteins in these tests, tags left out. Residues count along the entry.
UniProt P27815, 1-647 isoform P27815-4: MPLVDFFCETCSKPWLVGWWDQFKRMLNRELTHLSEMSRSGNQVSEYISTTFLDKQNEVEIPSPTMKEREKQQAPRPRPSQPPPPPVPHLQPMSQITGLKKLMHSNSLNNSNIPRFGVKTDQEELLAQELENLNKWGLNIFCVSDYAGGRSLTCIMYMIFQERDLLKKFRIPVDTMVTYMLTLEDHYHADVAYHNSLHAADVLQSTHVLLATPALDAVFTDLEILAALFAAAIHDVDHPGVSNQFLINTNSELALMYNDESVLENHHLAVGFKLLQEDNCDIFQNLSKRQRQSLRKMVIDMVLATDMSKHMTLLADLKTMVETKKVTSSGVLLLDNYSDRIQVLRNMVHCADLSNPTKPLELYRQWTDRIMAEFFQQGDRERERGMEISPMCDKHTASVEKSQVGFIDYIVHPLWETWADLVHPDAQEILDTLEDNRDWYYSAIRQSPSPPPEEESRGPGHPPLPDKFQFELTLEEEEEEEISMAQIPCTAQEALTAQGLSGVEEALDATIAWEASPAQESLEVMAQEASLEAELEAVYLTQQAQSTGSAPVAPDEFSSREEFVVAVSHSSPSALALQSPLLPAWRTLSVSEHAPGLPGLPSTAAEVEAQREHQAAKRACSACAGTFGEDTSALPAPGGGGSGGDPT
UniProt P27815, 1-825 isoform P27815-6: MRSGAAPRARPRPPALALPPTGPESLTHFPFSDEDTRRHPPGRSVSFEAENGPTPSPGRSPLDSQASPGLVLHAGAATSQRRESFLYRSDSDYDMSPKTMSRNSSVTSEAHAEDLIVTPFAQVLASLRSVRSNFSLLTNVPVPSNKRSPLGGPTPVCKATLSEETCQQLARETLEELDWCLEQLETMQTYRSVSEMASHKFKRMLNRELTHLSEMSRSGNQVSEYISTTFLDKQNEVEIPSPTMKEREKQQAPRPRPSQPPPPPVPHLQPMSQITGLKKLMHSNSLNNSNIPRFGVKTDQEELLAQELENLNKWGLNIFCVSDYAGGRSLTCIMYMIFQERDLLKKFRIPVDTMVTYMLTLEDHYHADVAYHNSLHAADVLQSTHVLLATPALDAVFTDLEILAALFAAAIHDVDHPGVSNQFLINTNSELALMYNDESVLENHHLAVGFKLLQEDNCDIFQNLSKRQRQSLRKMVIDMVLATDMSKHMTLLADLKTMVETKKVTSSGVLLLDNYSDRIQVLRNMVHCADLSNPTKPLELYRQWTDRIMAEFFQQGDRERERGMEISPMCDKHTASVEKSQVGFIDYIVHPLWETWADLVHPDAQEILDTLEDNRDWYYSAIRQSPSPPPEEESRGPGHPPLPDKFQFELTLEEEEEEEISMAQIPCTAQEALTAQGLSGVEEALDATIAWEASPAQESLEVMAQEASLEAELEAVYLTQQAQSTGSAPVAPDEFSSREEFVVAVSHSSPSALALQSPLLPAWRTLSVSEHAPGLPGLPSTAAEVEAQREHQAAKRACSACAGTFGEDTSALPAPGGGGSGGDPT
UniProt Q08493, 107-712: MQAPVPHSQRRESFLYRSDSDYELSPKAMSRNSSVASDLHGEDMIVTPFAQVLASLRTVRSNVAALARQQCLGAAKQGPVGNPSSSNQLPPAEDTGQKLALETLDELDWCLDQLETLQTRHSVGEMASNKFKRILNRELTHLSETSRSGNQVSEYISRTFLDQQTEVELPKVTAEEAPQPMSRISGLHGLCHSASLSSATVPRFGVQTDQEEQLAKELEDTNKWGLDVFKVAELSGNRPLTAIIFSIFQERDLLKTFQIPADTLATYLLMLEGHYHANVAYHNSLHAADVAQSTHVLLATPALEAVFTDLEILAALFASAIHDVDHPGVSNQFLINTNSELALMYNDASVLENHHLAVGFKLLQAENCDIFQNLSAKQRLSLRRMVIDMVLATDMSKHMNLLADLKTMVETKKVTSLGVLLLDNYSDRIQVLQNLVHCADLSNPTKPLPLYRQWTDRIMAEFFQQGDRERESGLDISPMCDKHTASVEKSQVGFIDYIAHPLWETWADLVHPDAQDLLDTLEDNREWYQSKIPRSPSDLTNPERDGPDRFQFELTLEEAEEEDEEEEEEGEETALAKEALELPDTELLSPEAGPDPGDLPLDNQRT

Columns and labels:
PDE4A1 = PDE4A1 (Homo sapiens, UniProt P27815); assay: biochemical
PDE4A10 = PDE4A10 (Homo sapiens, UniProt P27815); assay: biochemical
PDE4C2 = PDE4C2 (Homo sapiens, UniProt Q08493); assay type: biochemical
Description: Enzyme Preparations: Partially purified human recombinant phosphodiesterases (PDEs) were obtained by cloning cDNA and expressing in S. frugiperda insect cells using a baculovirus expression system. Cells are harvested from culture by centrifuging at 400×g for 5 minutes. Cell pellet is resuspended in 20 ml of RIPA Buffer (150 mM NaCl, 10 mM Tris, 0.1% NP-40, pH8.3), 4 ml/200 ml of culture, plus protease inhibitors (100 μl/10 ml) and incubated on ice for 10-20 minutes then spun at 3500×g for 10 minutes at 4° C. Supernatant is kept and the pellet thrown away.
Tritium-labelled cyclic AMP is hydrolysed to 5′-AMP o by PDE. The 5′-AMP is then further hydrolysed to adenosine by nucleotidase in snake venom. An anion-exchange resin binds all charged nucleotides and leaves [^3H]adenosine as the only labelled compound to be counted by liquid scintillation.
50 μl of diluted PDE enzyme was incubated with 50 μl of [^3H]-cAMP (specific activity 25 Ci/mmol) and 11 μl of 50% DMSO (or compound dilution) for 20 minutes at 30° C. […] 50 μl of supernatant was removed and added to 200 μl of MicroScint-20 in white plates (Greiner 96well Optiplate) and shaken for 30 minutes before reading on Perkin Elmer TopCount Scintillation Counter. IC50 values were calculated using GraphPad Prism software (version 8).

PDE4A4 = PDE4A4 (Homo sapiens, UniProt P27815); assay: biochemical

CCOc1cc([C@@H](CS(C)(=O)=O)N2C(=O)c3cccc(NC(C)=O)c3C2=O)ccc1OC [Apremilast]
pIC50 (PDE4A1): 7.11 | pIC50 (PDE4A10): 6.85 | pIC50 (PDE4C2): 6.61 | pIC50 (PDE4A4): 7.38
